Reference: publication PMC6987189, “Native aggregation is a common feature among triosephosphate isomerases of different species” (Scientific Reports, 2020)

Substrate: O=C[C@H](O)COP(=O)(O)O
Experiment: purified protein
Settings: GAP to DHAP direction, 25 °C, 100 mM TEA, 10 mM EDTA, 0.2 mM NADH, GAP 0.3 to 3 mM

B1: HsTIM (Homo sapiens) (protein)
chain: APSRKFFVGGNWKMNGRKQSLGELIGTLNAAKVPADTEVVCAPPTAYIDFARQKLDPKIAVAAQNCYKVTNGAFTGEISPGMIKDCGATWVVLGHSERRHVFGESDELIGQKVAHALAEGLGVIACIGEKLDEREAGITEKVVFEQTKVIADNVKDWSKVVLAYEPVWAIGTGKTATPQQAQEVHEKLRGWLKSNVSDAVAQSTRIIYGGSVTGATCKELASQPDVDGFLVGGASLKPEFVDIINAKQ
Km: 220 ± 30 µM
kcat: 3840 s⁻¹
kcat/Km: 1.7e+07 M⁻¹ s⁻¹
